The assay concerns the target HDAC3–NCoR2 (Homo sapiens, UniProt O15379).

Amino acid sequences for entries named in this document (tags omitted). A change or cut given only in a name is not applied to a line headed by its entry.
UniProt O15379: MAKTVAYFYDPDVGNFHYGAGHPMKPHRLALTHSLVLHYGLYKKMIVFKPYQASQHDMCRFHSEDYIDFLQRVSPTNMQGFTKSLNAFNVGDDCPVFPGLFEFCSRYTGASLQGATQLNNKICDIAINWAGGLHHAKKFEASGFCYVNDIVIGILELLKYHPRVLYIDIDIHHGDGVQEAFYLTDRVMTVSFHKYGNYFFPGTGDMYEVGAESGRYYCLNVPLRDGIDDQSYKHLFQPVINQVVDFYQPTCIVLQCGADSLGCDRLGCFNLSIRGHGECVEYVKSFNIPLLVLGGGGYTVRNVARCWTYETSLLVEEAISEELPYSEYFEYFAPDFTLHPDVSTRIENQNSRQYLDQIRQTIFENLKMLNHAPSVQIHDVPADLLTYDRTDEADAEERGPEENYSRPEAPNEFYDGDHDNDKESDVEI

The text below walks through data of article PMC2788660 (Journal of medicinal chemistry, 2009).

Square brackets hold non-standard residues; d marks the D form. Peptide text beside a SMILES is read from it. 1Nal = N[C@@H](Cc1cccc2ccccc12)C(=O)O; Asu = N[C@@H](CCCCCC(=O)O)C(=O)O; β3hL = CC(C)C[C@H](N)CC(=O)O

For `CC(C)C[C@H]1CC(=O)N[C@@H](CCCNC(=N)N)C(=O)N[C@@H](CCCCCC(=O)O)C(=O)N[C@@H](Cc2cccc3ccccc23)C(=O)N1` [compound 17, c[Asu-Nal-β^3Leu-Arg]] (cyclo([Asu][1Nal][β3hL]R); ring closure inferred), the “fold more potent against HDAC3 compared to Ala–aa4 analog (8b)” value is 4–5 fold.
